# Sampled rows, rich in hits. Any-hit rate of the full collection: about 16%.
# TDP1 cell CPT = DT40-hTDP1 cell growth loss with CPT; chicken DT40 Tdp1-/-;hTDP1 cells + 20 nM CPT, ATP luminescence, 48 h; hit rate 12% among 420,000; AID 686979; Potency, µM (doses to about 46.2 µM), for inactives: at the top dose activity change, negative = growth inhibition, most hits filed as inhibitors; further: potency means the concentration at half of the fitted maximal effect; on the % scale 0 is the no-effect control and ±100 the full control effect; nearly all actives have a fitted effect of over 55% in size
#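 Cell growth measured by CellTiter-Glo luminescence after a minimum 48 h, 37 C compound exposure with 20 nM CPT in Tdp1-knockout DT40 cells stably expressing hTDP1, seeded 400/well; qHTS titration format.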
# TDP1 block = blocks human tyrosyl-DNA phosphodiesterase 1 | recombinant TDP1, AlphaScreen DNA substrate cleavage | Potency, µM (series often up to 130 µM), inactives show top-dose activity change, negative = inhibition, hits mostly inhibitors | hit rate 0.28% among 350,000; further: potency means the concentration at half of the fitted maximal effect; on the % scale 0 is the no-effect control and ±100 the full control effect; nearly all actives have a fitted effect of over 40% in size
#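 Enzyme-compound mixtures sat 15 min at room temperature, followed by a 5 min reaction with 15 nM final substrate and 10 min with AlphaScreen beads. Recombinant human Tdp1 was used at 1 nM final.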
# uPA generation = inhibitors of cell surface uPA generation. cell surface uPA generation assay, qHTS. hit rate 0.31% among 330,000. Potency, µM (series often up to 38.3 µM), without a hit: top-dose activity change, negative = inhibition, actives largely listed as inhibitors; active means well fitted inhibition curve with a large enough effect; inconclusive means small, poorly fitted or top-dose-only effect; inactive means no such curve, though single readings can be large or run the other way; tested in mouse RAW 264.7 cells; further: potency means the concentration at half of the fitted maximal effect; on the % scale 0 is the no-effect control and ±100 the full control effect; nearly all actives have a fitted effect of over 55% in size
# miR-21 FLuc = miR-21 reporter, rising signal; HeLa miR-21 FLuc reporter, luciferase, 48 h; Potency, µM (highest dose often 38.3 µM), for the others: top-dose reporter change, positive = more light; 340,000 tested, under 10 active; AID 2288; active = well fitted rising curve with a large enough effect; inconclusive = small, poorly fitted or top-dose-only effect; inactive = no such curve, though single readings can be large or run the other way;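 further: % of control where 0% means no effect; miR-21 action dims this reporter so a rising signal means less miR-21 action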
#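 Using DMEM plus 10% FBS, HeLa miR-21-FLuc cells are incubated with test compounds (final up to about 40uM) for 48 hours; firefly luciferase signal is then imaged following reagent-mediated lysis.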
# DT40 TDP1 no CPT = qHTS for Inhibitors of human tyrosyl-DNA phosphodiesterase 1 (TDP1): qHTS in cells in absence of CPT; hit rate 15% among 420,000; DT40 Tdp1-/- hTDP1 cells, no CPT, ATP luminescence, 48 h; Potency, µM (series often up to 46.2 µM), without a hit: at the highest dose activity change, negative = growth inhibition, usual class: inhibitors; AID 686978, 2013; further: potency means the concentration at half of the fitted maximal effect; on the % scale 0 is the no-effect control and ±100 the full control effect; nearly all actives have a fitted effect of over 55% in size
#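 Compound effects on proliferation are scored in DT40 Tdp1-/-;hTDP1 cells in the absence of CPT. ATP levels (CellTiter-Glo luminescence) are recorded after a ≥48 hr, 37 °C incubation.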
# Active calls of the source: *; ? = inconclusive; · = not tested or not shown; [ ] = remark or other dose. Unless noted, the call rests on the fitted dose curve; in most records, active means well fitted curve in the direction sought with a large enough effect; inconclusive means small, poorly fitted or top-dose-only effect, or another doubt; inactive means no such curve, though single readings can be large; an effect the other way counts as inactive or inconclusive.
# Codes – A = TDP1 cell CPT; B = TDP1 block; C = uPA generation; D = miR-21 FLuc; E = DT40 TDP1 no CPT
> O=C(Cn1c(C(=O)N2CCN(C3CCCCC3)CC2)cc2sccc21)c1ccccc1
  A: ?; B: 2%; C: ·; D: -8%; E: ?

> COc1ccc(NC(=O)CCCN2C(=O)C(c3ccccc3)Oc3cccnc32)c(OC)c1 (configuration not stated)
  A: 18µM*; B: 1%; C: 6%; D: -5%; E: 23µM*

> COc1ccc(CCNC(=O)CCCN2C(=O)C(c3ccccc3)Oc3cccnc32)cc1OC (configuration not stated)
  A: ?; B: 1%; C: -16%; D: 0%; E: -29%

> Cc1ccc(NC(=O)CCCN2C(=O)C(c3ccccc3)Oc3cccnc32)c(C)c1 (configuration not stated)
  A: ?; B: ·; C: ·; D: ·; E: -26%

> Cc1ccc(C)c(NC(=O)CCCN2C(=O)C(c3ccccc3)Oc3cccnc32)c1 (configuration not stated)
  A: 18µM*; B: 0%; C: ·; D: 2%; E: 23µM*

> O=C(CCCN1C(=O)C(c2ccccc2)Oc2cccnc21)Nc1ccc(Br)cc1F (configuration not stated)
  A: 18µM*; B: 5%; C: ·; D: -9%; E: 21µM*

> COc1ccccc1NC(=O)CCCN1C(=O)C(c2ccccc2)Oc2cccnc21 (configuration not stated)
  A: 16µM*; B: 4%; C: -12%; D: -8%; E: ?

> CN1CC(=O)Nc2ccccc2C1=O
  A: 11%; B: ·; C: -11%; D: 0%; E: 0%

> O=C(CN1N=C(c2ccc(Cl)cc2)CCC1=O)NCc1cccs1
  A: ·; B: 7%; C: ·; D: 2%; E: ·

> CC(C)(C)c1ccc(/C=C/C(=O)Nc2ccc(S(N)(=O)=O)cc2)cc1
  A: 6.5µM*; B: ·; C: ·; D: ?; E: 8.2µM*

> Cc1ccccc1N1CCN(C2CCCN(C(=O)CCN3CCCCO3)C2)CC1 (configuration not stated)
  A: -2%; B: 3%[56.1 µM]; C: -2%; D: 2%; E: -3%

> CCN(CC)CCNC(=O)c1ccc(NC(=O)C2CCN(c3ncnc4sc(C)c(C)c34)CC2)cc1
  A: 18µM*; B: 4%; C: -14%; D: -2%; E: 23µM*

> CCN(CC(=O)Nc1c(F)cccc1F)C(=O)C1CCN(c2ncnc3sc(C)c(C)c23)CC1
  A: 21µM*; B: -5%; C: -4%; D: ·; E: 18µM*

> CC(=O)c1sc(NC(=O)C2CCN(c3ncnc4sc(C)c(C)c34)CC2)nc1-c1ccccc1
  A: ?; B: ·; C: 20%; D: ·; E: ?

> Cc1sc2ncnc(N3CCC(C(=O)Nc4ccc(OC(F)F)c(Cl)c4)CC3)c2c1C
  A: ?; B: -1%; C: 6%; D: ·; E: ?

> Cc1ccc(OCC(=O)NNC(=O)C2CCN(c3ncnc4sc(C)c(C)c34)CC2)cc1
  A: ?; B: 0%; C: -7%; D: ·; E: ?

> Cc1sc2ncnc(N3CCC(C(=O)Nc4nnc(CC(C)C)s4)CC3)c2c1C
  A: ?; B: ·; C: -2%; D: ·; E: 23µM*

> Cc1sc2ncnc(N3CCC(C(=O)Nc4nc(-c5ccc(F)cc5)cs4)CC3)c2c1C
  A: ?; B: 5%; C: -1%; D: ·; E: 16µM*

> CCNc1nc(NCC)n2c(SCC(=O)Nc3ccccc3[N+](=O)[O-])nnc2n1
  A: -2%; B: 6%; C: -5%; D: -2%; E: 7%

> O=C1CCCC2=C1C1(CCCC1)N=C(Nc1nc3ccccc3o1)N2
  A: ·; B: -6%; C: ·; D: -7%; E: ·

> O=C1CCCC2=C1C1(CCCCC1)N=C(Nc1nc3ccccc3o1)N2
  A: ?; B: 2%; C: -3%; D: -5%; E: 13µM*

> Cc1cc(C)c2cc(CN(Cc3nnnn3C3CCCCC3)CC3CCCO3)c(=O)[nH]c2c1 (configuration not stated)
  A: ?; B: 5%; C: -5%; D: -6%; E: 13µM*

> Cc1cccc2cc(CN(Cc3nnnn3C3CCCC3)C3CCCCC3)c(=O)[nH]c12
  A: 21µM*; B: ·; C: 2%; D: ·; E: ?

> COc1ccc(CN(Cc2cc3ccc(C)cc3[nH]c2=O)Cc2nnnn2C2CCCC2)cc1
  A: ?; B: 4%; C: -19%; D: 13%; E: 18µM*

> Cc1ccc2[nH]c(=O)c(CN(Cc3ccc4c(c3)OCO4)Cc3nnnn3C3CCCC3)cc2c1
  A: ?; B: 3%; C: -10%; D: 1%; E: ?

# 3 entries from above, with two lines to a compound.
# The line under a structure holds: TDP1 cell CPT | TDP1 block | uPA generation | miR-21 FLuc | DT40 TDP1 no CPT
> O=C1CCCC2=C1C1(CCCC1)N=C(Nc1nc3ccccc3o1)N2
 : · | -6% | · | -7% | ·
> COc1ccc(CCNC(=O)CCCN2C(=O)C(c3ccccc3)Oc3cccnc32)cc1OC (configuration not stated)
 : ? | 1% | -16% | 0% | -29%
> O=C1CCCC2=C1C1(CCCCC1)N=C(Nc1nc3ccccc3o1)N2
 : ? | 2% | -3% | -5% | 13µM*

# Source: PubChem BioAssay
